Results published in patent US6872733B2, “Benzimidazolone compounds” (dated 2005).

By UniProt entry, the sequences of proteins in these tests, tags left out. Where a name states a change or a piece, a line headed by the entry shows the natural chain unless it says otherwise.
UniProt P41146: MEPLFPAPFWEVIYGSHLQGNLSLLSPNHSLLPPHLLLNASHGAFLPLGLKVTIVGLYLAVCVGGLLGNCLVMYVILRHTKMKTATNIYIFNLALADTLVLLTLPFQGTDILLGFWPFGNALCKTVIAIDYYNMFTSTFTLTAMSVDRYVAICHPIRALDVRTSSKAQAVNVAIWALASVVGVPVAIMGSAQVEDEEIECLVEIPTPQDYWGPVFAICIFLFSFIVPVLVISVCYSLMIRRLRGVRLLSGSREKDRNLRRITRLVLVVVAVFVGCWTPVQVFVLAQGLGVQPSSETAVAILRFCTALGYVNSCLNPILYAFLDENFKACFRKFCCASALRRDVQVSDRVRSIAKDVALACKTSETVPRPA
UniProt P35372, whole entry, looked up: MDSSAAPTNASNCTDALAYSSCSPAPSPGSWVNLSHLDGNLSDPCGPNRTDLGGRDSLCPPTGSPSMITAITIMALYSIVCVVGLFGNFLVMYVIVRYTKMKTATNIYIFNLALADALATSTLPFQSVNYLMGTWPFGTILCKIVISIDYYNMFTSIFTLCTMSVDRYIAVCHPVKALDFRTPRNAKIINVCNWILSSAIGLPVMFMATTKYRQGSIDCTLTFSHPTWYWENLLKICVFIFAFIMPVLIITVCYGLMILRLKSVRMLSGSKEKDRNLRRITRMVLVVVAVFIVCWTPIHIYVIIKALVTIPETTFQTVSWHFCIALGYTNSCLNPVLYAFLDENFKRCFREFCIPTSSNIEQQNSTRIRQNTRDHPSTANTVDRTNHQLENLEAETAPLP

Tests used:
[1] = molecular target: human opioid receptor-like receptor (ORL-1) (Homo sapiens, UniProt P41146); details: read-out: Nociceptin Affinity calc Ki; membranes from recombinant HEK-293 cells expressing human ORL-1
Mu opioid receptor = Mu opioid receptor (Homo sapiens, UniProt P35372); experiment: Affinity at the μ receptor ([35S]GTPγS binding assay on membranes); details: read-out: Mu Receptor Affinity calc Ki; Mu opioid receptor membrane

| SMILES | Ki [1] [nM] | Ki (Mu opioid receptor) [nM] |
| --- | --- | --- |
| CCN1C(=O)N(C2CCN(C3CCC4CCCCC4C3)CC2)[C@@H]2CCCC[C@H]21 (relative stereo) | 184 | 279 |
| O=C1N[C@@H]2CCCC[C@H]2N1C1CCN(Cc2ccc3ccccc3c2)CC1 (relative stereo) | 1260 | 1240 |
| CCN1C(=O)N(C2CCN(C3CCCCCCC3)CC2)[C@@H]2CCCC[C@H]21 (relative stereo) | 111 | 909 |
